{"source": "paper PMC9243654", "about": "(Frontiers in Nutrition, 2022)", "origin": "cited, not measured here", "details": "ref PubChem database, cited from earlier work", "note": "Read-outs that look alike come from different tables or passages of the source.", "data": [{"smiles": "COc1cc(C=O)ccc1O", "note": "[Vanillin]", "values": [{"measurement": "Log P", "setting": "compounds identified in LPLE extract", "result": 1.2}, {"measurement": "Log P", "setting": "compounds of ASFE extract", "result": 1.2}]}]}
